Literature values in patent US20240189317A1, “ANTIVIRAL COMPOSITIONS AND METHODS” (AI Therapeutics, Inc., priority 2021, published 2024).

Test system: basal and insulin-activated 2-deoxyglucose uptake
Details: read-out: IC50, inhibition of basal and insulin-activated 2-deoxyglucose uptake; adipocytes; cited from earlier work

## Nc1ccc(C(=O)Nc2cccc(-c3nc(N4CCOCC4)c4oc5ncccc5c4n3)c2)cn1 [YM-201636, 6-amino-N-(3-(4-morpholinopyrido[3′,2′:4,5]furo[3,2-d]pyrimidin-2-yl)phenyl)nicotinamide]
  IC50: 54 nM
